From ChEMBL document CHEMBL1131780 (Bioorg Med Chem Lett, 1999)

Chains of the proteins cited; added tags and fusions are not shown. Lines headed by an entry give the natural chain unless they say otherwise; changes in a name come on top.
UniProt P11229: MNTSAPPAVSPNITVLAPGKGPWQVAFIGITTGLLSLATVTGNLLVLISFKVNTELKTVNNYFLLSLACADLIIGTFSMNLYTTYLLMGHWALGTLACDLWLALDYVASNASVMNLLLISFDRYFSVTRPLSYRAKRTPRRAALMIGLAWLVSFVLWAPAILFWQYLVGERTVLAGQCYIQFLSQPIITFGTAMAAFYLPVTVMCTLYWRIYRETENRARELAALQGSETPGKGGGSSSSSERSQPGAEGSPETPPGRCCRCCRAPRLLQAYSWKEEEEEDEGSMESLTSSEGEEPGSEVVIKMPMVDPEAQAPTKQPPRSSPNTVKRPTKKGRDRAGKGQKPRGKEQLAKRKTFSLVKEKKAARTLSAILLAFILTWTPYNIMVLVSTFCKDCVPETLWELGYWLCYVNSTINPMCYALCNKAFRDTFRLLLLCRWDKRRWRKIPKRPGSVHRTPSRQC

Target: Muscarinic acetylcholine receptor M1 (Homo sapiens, UniProt P11229)
Experiment: Efficacy expressed as PI (percentage of carbachol) against human M1 receptor expressed in CHO cells
Assay type: functional, cell-based

CCCCCCOc1nccnc1O[C@@H]1CN2CCC1C2 (stereo in doubt; 6)
PI: 75%
